Measured affinities in a library of Ab-14 light chain variants

Source: Engelhart et al. 2022 (doi:10.1038/s41597-022-01779-4), MIT Lincoln Laboratory and A-Alpha Bio; data file from the FLAb repository.

The target is the same throughout: PDVDLGDISGINAS, from the HR2 region of SARS-CoV-2 spike.

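In library AAYL50, one, two or three CDR residues were substituted; doubles and triples were drawn at random. The assay is AlphaSeq: two haploid yeast populations carry antibody and antigen on their surface. The frequency of each diploid, read from paired DNA barcodes, reflects how well the two displayed proteins bind. A regression on co-assayed BCL2-family reference pairs converts the normalised counts of each replicate to an apparent Kd. There are three technical replicates.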

Each scFv is VH, three GGGGS repeats, VL, as in the parent Ab-14, and differs from it in the CDRs of the light chain only.
VH: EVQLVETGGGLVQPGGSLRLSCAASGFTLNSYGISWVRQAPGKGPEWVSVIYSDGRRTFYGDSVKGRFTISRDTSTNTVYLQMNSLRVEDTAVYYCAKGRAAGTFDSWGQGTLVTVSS
VL: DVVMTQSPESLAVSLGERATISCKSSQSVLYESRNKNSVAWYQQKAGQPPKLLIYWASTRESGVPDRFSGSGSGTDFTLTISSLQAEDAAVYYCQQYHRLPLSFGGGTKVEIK

The whole VL of each variant is written out. Values are log10 of the apparent Kd in nM; lower means stronger binding. A mean of the replicates is given; it leaves out those without a signal. Where no diploid with the target was found in that replicate, the entry reads "n.d.": below detection, most likely a poor binder, though not proof of it.

VL,log10 Kd (nM) by replicate,"log10 Kd (nM), mean"
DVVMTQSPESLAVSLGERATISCKSSQSVLYEPRNKNSVAWYQQKAGQPPKLLIYWISTRESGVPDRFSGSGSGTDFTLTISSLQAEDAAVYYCQTYHRLPLSFGGGTKVEIK,n.d. / 3.27 / n.d.,3.27
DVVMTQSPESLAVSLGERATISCRSSQSVLYESRNKNSVAWYQQKAGQPPKLLIYLASTRESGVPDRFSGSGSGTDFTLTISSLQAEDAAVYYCQQYHRLPLHFGGGTKVEIK,2.70 / 2.27 / 3.21,2.72
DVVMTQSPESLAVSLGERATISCKSSQSVLYESRNKNSVAWYQQKAGQPPKLLIYWASTREQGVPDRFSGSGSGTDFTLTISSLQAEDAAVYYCQQDHRLHLSFGGGTKVEIK,4.68 / n.d. / 4.49,4.59
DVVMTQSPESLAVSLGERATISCKSSQSVRYESRNKNSVAWYQQKAGQPPKLLIYWASTRESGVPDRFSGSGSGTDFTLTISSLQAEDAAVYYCQQYHRLPLKFGGGTKVEIK,3.11 / n.d. / n.d.,3.11
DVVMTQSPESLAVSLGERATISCKSSQSVLYLSRNKNSVAWYQQKAGQPPKLLIYWAMTAESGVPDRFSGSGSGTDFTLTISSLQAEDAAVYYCQQYHRLPLSFGGGTKVEIK,n.d. / n.d. / n.d.,n.d.
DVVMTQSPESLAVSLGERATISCKSSQAVLYEIRWKNSVAWYQQKAGQPPKLLIYWASTRESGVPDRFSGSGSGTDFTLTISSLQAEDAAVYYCQQYHRLPLSFGGGTKVEIK,n.d. / n.d. / n.d.,n.d.
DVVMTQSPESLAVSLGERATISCKSQQSVLYESRNKNSVAWYQQKAGQPPKLLIYWASTRENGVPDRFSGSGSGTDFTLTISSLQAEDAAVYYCAQYHRLPLSFGGGTKVEIK,1.74 / 2.38 / 2.42,2.18
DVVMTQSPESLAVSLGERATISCKSSDSVLYESRNKNKVAWYQQKAGQPPKLLIYWASTRESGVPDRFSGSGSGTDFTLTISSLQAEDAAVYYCQQYHRLPLPFGGGTKVEIK,n.d. / n.d. / n.d.,n.d.
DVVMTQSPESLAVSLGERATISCKSSQSELYESRNKNSVAWYQQKAGQPPKLLIYWASTRESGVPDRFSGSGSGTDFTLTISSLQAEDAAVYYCQQQHRLELSFGGGTKVEIK,n.d. / n.d. / n.d.,n.d.
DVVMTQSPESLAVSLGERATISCKSTQSVLYESDNKNSVAWYQQKAGQPPKLLIYWASWRESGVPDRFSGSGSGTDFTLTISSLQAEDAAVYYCQQYHRLPLSFGGGTKVEIK,1.01 / 1.19 / 1.44,1.21
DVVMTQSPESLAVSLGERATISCKSSNSVLQESRNKNSVAWYQQKAGQPPKLLIYWASTRESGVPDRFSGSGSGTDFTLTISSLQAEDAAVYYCQQYHQLPLSFGGGTKVEIK,n.d. / n.d. / n.d.,n.d.
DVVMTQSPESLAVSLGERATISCKSRQSVLYESRNKNSVAWYQQKAGQPPKLLIYWASTYESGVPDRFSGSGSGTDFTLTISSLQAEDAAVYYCQQHHRLPLSFGGGTKVEIK,n.d. / n.d. / 3.74,3.74
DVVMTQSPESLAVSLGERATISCKSSQMVYYESRNKNSVAWYQQKAGQPPKLLIYWASTRESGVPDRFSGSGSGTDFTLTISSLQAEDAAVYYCQQYHRVPLSFGGGTKVEIK,1.44 / 1.32 / 1.28,1.35
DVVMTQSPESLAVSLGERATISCKSSQSVGYEKRNKNSVAWYQQKAGQPPKLLIYWASTREWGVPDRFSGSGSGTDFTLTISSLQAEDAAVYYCQQYHRLPLSFGGGTKVEIK,3.48 / 3.35 / 3.38,3.40
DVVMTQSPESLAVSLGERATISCKSSQSVLYESRNTNSSAWYQQKAGQPPKLLIYWASTRESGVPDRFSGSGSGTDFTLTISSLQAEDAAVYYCQRYHRLPLSFGGGTKVEIK,n.d. / n.d. / 4.16,4.16
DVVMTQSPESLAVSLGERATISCKSSQSVLYESRNKNSVAWYQQKAGQPPKLLIYWASTAESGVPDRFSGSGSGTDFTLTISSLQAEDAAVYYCMQYHRTPLSFGGGTKVEIK,n.d. / n.d. / n.d.,n.d.
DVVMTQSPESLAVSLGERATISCKSSQSVLYESRKKNSVAWYQQKAGQPPKLLIYWKSTRESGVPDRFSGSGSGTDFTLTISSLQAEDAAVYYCQQYHRLALSFGGGTKVEIK,n.d. / n.d. / n.d.,n.d.
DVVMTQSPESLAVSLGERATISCKSSQSVLYESRNKNSVAWYQQKAGQPPKLLIYWASTREQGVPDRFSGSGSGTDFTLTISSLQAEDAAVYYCQQYHRLPVIFGGGTKVEIK,2.72 / 2.28 / 2.83,2.61
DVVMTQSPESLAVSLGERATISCKYNQSVLYESRNKNSVAWYQQKAGQPPKLLIYWASTRESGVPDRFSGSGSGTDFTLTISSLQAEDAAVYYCQQRHRLPLSFGGGTKVEIK,n.d. / n.d. / 3.09,3.09

Excerpt, the first 2 entries:

VL,log10 Kd (nM) by replicate,"log10 Kd (nM), mean"
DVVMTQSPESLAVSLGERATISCKSSQSVLYEPRNKNSVAWYQQKAGQPPKLLIYWISTRESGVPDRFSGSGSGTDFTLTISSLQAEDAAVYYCQTYHRLPLSFGGGTKVEIK,n.d. / 3.27 / n.d.,3.27
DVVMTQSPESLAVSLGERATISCRSSQSVLYESRNKNSVAWYQQKAGQPPKLLIYLASTRESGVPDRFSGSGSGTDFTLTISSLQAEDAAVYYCQQYHRLPLHFGGGTKVEIK,2.70 / 2.27 / 3.21,2.72

Nonspecific signal, from three strains lacking the peptide, appeared in 18% of pairings of library AAYL50, centred on 4.19 (5% of these signals below 2.99); values are not corrected for it. For reference, the parent read 0.65 as the reference entry and 1.68 as a member of this library.